Measured affinities in a library of Ab-14 heavy chain variants

The target is the same throughout: PDVDLGDISGINAS, from the HR2 region of SARS-CoV-2 spike.

Parent: Ab-14, a human scFv built as VH, three GGGGS repeats, VL. Only the CDRs of the heavy chain vary.
VH: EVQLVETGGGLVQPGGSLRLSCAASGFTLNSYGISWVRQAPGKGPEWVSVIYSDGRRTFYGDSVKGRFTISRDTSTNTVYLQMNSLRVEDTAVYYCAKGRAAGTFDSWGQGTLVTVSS
VL: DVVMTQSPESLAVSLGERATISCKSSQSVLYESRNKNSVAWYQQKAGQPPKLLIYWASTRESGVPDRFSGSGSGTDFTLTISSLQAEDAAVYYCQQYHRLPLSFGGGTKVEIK

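The parent was found by panning a naive human phage display library on the peptide. Variants in AAYL49 differ from the parent at up to three CDR positions; double and triple changes were sampled at random. Affinity was read by AlphaSeq, a pooled yeast mating assay with surface-displayed partners. After mating in shaken culture at 30 °C for 16 h, diploids were selected and their barcode pairs sequenced. Read counts were normalised to the haploid input and turned into Kd by a linear fit to BCL2-family pairs of known affinity, for each replicate. There are three technical replicates.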

The parent's heavy chain CDRs are GFTLNSYGIS, VIYSDGRRTFYGDSVK, GRAAGTFDS; each variant's own CDRs replace them letter for letter.
Every variant below is changed at I34 of the VH (sequential numbering).
The read-out is the apparent dissociation constant on a log10 scale (nM): the lower, the stronger.
Where no diploid with the target was found in that replicate, the entry reads "ND": below detection, most likely a poor binder, though not proof of it.
Three control strains display no target. For library AAYL49, 15% of the pairings with them gave a signal, with a median of 4.06 and one signal in twenty below 2.83, so weak values seen in few replicates may be background. The control count says in how many pairings with the empty strains this scFv gave a signal.

For GFTLNSYGFS | VIYSDGRRTFYGFSVK | GRAAETFDS, the assay gave ND, 4.78, ND (controls 2 of 9). With GFTLNSYGLS | VIYSDGRRTFYGDSVK | GRAADTEDS the result was ND, 5.40, ND (controls 2 of 9). The variant GFELNSYGAS | VIYSDGRRTFYGDSVK | GRAAGTVDS showed ND, ND, ND (controls 3 of 9). With GFTLNSYGLS | VIYSDGRRTFYSDSVK | GIAAGTFDS the result was 1.02, 1.10, 1.73 (controls 0 of 9). The variant GFTLNSYGAS | VIYSSGRRTFYGDSVK | CRAAGTFDS gave ND, 3.49, 4.52 (controls 0 of 9). The variant GFTLNSYGQS | VQYSDGRRTFYGDSVK | MRAAGTFDS showed ND, ND, ND (controls 0 of 9). The variant GFTLNSYGKS | VIYSDGRRTFYGDSVQ | GRAAGTFDW gave ND, 3.25, ND (controls 2 of 9).

The variant GFTLNSYGDS | VIYSDGRRTFYGDSVK | GRAAGLFDS showed ND, ND, ND (controls 1 of 9). The variant GFTLNSYGYS | KICSDGRRTFYGDSVK | GRAAGTFDS gave 5.56, 5.45, 5.58 (controls 3 of 9). For GFTLNSYGNS | VIYSDGRRTFYGDSVK | GRAATFFDS, the assay gave 4.43, ND, ND (controls 0 of 9). With GFTLNSYGPS | VIMSDGRRTFYGDSVK | GRAAGQFDS the result was 5.05, 4.14, 4.20 (controls 1 of 9). The variant HFTLNSYGFS | VIYSDGRRTFYGDSVK | GRAASTFDS gave ND, ND, ND (controls 3 of 9). For GFTLNSYGPS | VIYSDGHRTFYGDSVK | GRAAGTFIS, the assay gave ND, ND, ND (controls 0 of 9). The variant GFTLNSYGWS | VIYSDGTRTFYGDSVK | GRAAGTFDS showed ND, ND, 5.03 (controls 1 of 9).

The variant GFTLNSYGES | VIYSDGRRTFYQDSVK | GRAYGTFDS gave ND, ND, ND (controls 1 of 9). With GTTLNSYGGS | VAYSDGRRTFYGDSVK | GRAAGTFDS the result was 4.50, ND, ND (controls 6 of 9). The variant GFTLNSYGCS | VIYSDGRRTTYGDSVK | GRAAGTFDS showed ND, ND, ND (controls 2 of 9). For GFTLNSYGWS | VIYSDGRRTFYLDSVK | GRAAGTFDS, the assay gave ND, ND, ND (controls 0 of 9). The variant GFFLNSYGSS | VIYSDGRRTFRGDSVK | GRAAGTFDS gave ND, ND, ND (controls 0 of 9). For GFTHNSYGLS | CIYSDGRRTFYGDSVK | GRAAGTFDS, the assay gave ND, ND, 3.87 (controls 1 of 9). The variant GFTLNSYGFS | VIYSDGYRTFYGDSVK | GRAAGTFDS gave ND, ND, ND (controls 0 of 9).

The variant GFTLNSYGLS | DIYSDGRRTFYGDSNK | GRAAGTFDS showed ND, 5.01, ND (controls 4 of 9). With GFTLNSYGDS | VIYSDGRRTFYGDSRK | GRAAGTFDS the result was ND, ND, ND (controls 0 of 9). For GFTLNSYGYS | VIYSDGRRTKYGDSVK | GRAAGTFDP, the assay gave 5.61, ND, ND (controls 1 of 9). The variant GITLNRYGAS | VIYSDGRRTFYGDSVK | GRAAGTFDS showed ND, ND, 3.83 (controls 3 of 9). With GFTLNSYGFP | VIYSDGRRTFYGDSVK | GAAAGTFDS the result was 2.97, ND, 2.24 (controls 0 of 9). With GFTLNAYGPS | VIYSPGRRTFYGDSVK | GRAAGTFDS the result was 4.72, 3.51, 4.65 (controls 7 of 9). For GFTLNSYGFS | VIYSDGRRTFYGDSVK | GRAAGEFDF, the assay gave ND, ND, ND (controls 0 of 9).

The variant MFTLNSYGCS | NIYSDGRRTFYGDSVK | GRAAGTFDS showed ND, ND, ND (controls 1 of 9). The variant GFTLNSYGHS | VIYSDGRRTQYGDSLK | GRAAGTFDS gave ND, ND, ND (controls 2 of 9). The variant GFTLNSRGKS | VIYSDARRTFYGDSVK | GRAAGTFDS showed ND, ND, ND (controls 1 of 9). With GFTLNSYGFS | VIYSDGRRTFYGDSVK | CRAAGGFDS the result was ND, ND, ND (controls 0 of 9). With GFTLNSYGES | VIYSDGRRTFYGDSKL | GRAAGTFDS the result was ND, ND, ND (controls 0 of 9).

From the list, the first 5 with no signal in any replicate:

The variant GFELNSYGAS | VIYSDGRRTFYGDSVK | GRAAGTVDS gave ND, ND, ND (controls 3 of 9).
The variant GFTLNSYGQS | VQYSDGRRTFYGDSVK | MRAAGTFDS gave ND, ND, ND (controls 0 of 9).
The variant GFTLNSYGDS | VIYSDGRRTFYGDSVK | GRAAGLFDS gave ND, ND, ND (controls 1 of 9).
The variant HFTLNSYGFS | VIYSDGRRTFYGDSVK | GRAASTFDS gave ND, ND, ND (controls 3 of 9).
The variant GFTLNSYGPS | VIYSDGHRTFYGDSVK | GRAAGTFIS gave ND, ND, ND (controls 0 of 9).

Values reported by Engelhart et al. 2022, doi:10.1038/s41597-022-01779-4 (FLAb copy).